Experimental data from US8715537B2, “Molecular precursor methods and materials for optoelectronics” (Precursor Energetics, Inc., priority 2009, dated 2014).

Key:
[1] = Solubility of molecular precursor in organic solvents; format: physicochemical
[2] = Thermogravimetric analysis (TGA): transition of molecular precursor into material; format: physicochemical
Protocol: Thermogravimetric analysis (TGA) was performed using a Q50 Thermogravimetric Analyzer (TA Instruments, New Castle, Del.). NMR data were recorded using a Varian 400 MHz spectrometer.

Cu—(S^tBu)3Ga^tBu [Example 6]
Solubility: benzene ([1]; solvent benzene, 'heat'): ss heat
Solubility: diethyl ether ([1]; solvent diethyl ether): nil
Solubility: pentane ([1]; solvent pentane): nil
Solubility: toluene ([1]; solvent toluene, 'heat'): s heat
TGA transition ending (completed) temperature ([2]; TGA, transition of precursor into material): about 225 °C
TGA yield for the transition ([2]; residue at end of transition): 45.7 % (w/w)
